The target in one experiment is IDH1R132C (Homo sapiens (Human), UniProt O75874, R132C). The experiment in a line: Inhibitory activity against IDH1R132C enzyme (NADPH detection, WST-8). It counts as biochemical. The settings on record: read-out: Test Example 1 IDH1 R132C IC50, 10 nM, residual NADPH detected with WST-8.
Experiment [1] addresses HT-1080 cells expressing IDH1R132C (UniProt O75874). The experiment in a line: 2-HG production inhibitory activity using HT1080 cell. In kind it is cell-based, human. The settings on record: read-out: Test Example 3 IC50.
Experiment [2] relates to HT1080 xenografted mice (IDH1R132C). Put plainly: 2-HG production inhibitory activity using HT1080 xenografted mice. In kind it is in vivo, mouse.

The chains behind the UniProt entries cited, without tags or fusion partners.
UniProt O75874, whole entry R132C: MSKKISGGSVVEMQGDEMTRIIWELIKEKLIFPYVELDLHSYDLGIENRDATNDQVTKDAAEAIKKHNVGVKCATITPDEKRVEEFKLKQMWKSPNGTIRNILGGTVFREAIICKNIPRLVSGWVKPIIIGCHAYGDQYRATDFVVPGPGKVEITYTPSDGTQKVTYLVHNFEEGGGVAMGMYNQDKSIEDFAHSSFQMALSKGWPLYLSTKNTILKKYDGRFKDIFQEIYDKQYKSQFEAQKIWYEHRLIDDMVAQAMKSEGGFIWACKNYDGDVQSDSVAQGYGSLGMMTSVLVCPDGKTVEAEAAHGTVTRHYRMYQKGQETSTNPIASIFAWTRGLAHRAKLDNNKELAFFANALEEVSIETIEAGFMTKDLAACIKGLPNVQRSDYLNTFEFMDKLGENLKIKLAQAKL

As to `C=CC(=O)N1CCC(c2onc(-c3c(F)cc(Cl)cc3Cl)c2C(=O)n2cc(C)c3c(/C=C/C(=O)O)cccc32)CC1`, the IC50 turned out to be 169 nM on IDH1R132C and 11 nM in experiment [1]. Moreover, the “Test Example 5 Ratio (%)” value in experiment [2] was found to be 18%.

For the origin of these results see US10040791B2, “Isoxazole derivative as mutant isocitrate dehydrogenase 1 inhibitor” (Daiichi Sankyo Company, Limited, priority 2014, dated 2018).
